{"source": "patent US7351800B2", "about": "“Stabilized albumin preparations” (Nipro Corporation, priority 2002, dated 2008)", "type_in_all_cases": "physicochemical", "key": {"[1]": {"target": "T1, HSA (Homo sapiens, UniProt P02768)", "experiment": "NATIVE-PAGE of HSA after heat treatment at 60° C. for 30 minutes (aggregate inhibition)", "settings": "24-μM HSA, phosphate buffer 67 mM pH 7.4, heat treatment 60° C. for 30 minutes"}, "[2]": {"target": "T1, HSA", "experiment": "Differential scanning calorimetry (DSC) of HSA solutions: thermal stabilization effect"}, "[3]": {"target": "T1, HSA", "experiment": "Abundance ratio of mercapto type and non-mercapto type of HSA by HPLC after AAPH oxidation", "settings": "24-μM HSA, 120 μM of each agent, AAPH added, 280-nm UV"}, "[4]": {"settings": "DSC, 100-μM HSA, 500-μM of each added agent, phosphate buffer pH 7.4, scanning rate 1 K/min"}}}
{"substance": "medical agent under test (1) (no medical agent added): 24-μM HSA in phosphate buffer (67 mM, pH 7.4), Experimental Example 2", "values": [{"measurement": "aggregates / aggregate-inhibition effect in NATIVE-PAGE", "setting": "[1]", "value": "a large quantity of aggregates"}]}
{"substance": "(1) HSA: 100-μM solution of degreased genetically engineered human serum albumin in phosphate buffer pH 7.4, no stabilizer", "values": [{"measurement": "Tm (thermal transition temperature)", "setting": "[2]; [4]", "value": 59.50, "unit": "°C"}, {"measurement": "Δhcal (change in enthalpy of transition)", "setting": "[2]; [4]", "value": "1.64 10^5kcal/mol"}, {"measurement": "heating temperature up to which thermal transition is reversible without irreversible denaturation", "setting": "[2]; albumin solution cooled after first DSC measurement and heated again", "value": "up to 85 °C"}]}
{"substance": "medical agent under test (1): 24-μM HSA phosphate buffer with AAPH, no stabilizer, Experimental Example 4", "values": [{"measurement": "change in abundance ratio between mercapto type and non-mercapto type of HSA", "setting": "[3]", "value": "a decrease in mercapto type and an increase in non-mercapto type"}]}
